The source of these data is ChEMBL document CHEMBL2385030, “Crystallographic Investigation and Selective Inhibition of Mutant Isocitrate Dehydrogenase” (ACS Med Chem Lett, 2013).

By UniProt entry, the sequences of proteins in these tests, tags left out.
UniProt O75874, whole entry: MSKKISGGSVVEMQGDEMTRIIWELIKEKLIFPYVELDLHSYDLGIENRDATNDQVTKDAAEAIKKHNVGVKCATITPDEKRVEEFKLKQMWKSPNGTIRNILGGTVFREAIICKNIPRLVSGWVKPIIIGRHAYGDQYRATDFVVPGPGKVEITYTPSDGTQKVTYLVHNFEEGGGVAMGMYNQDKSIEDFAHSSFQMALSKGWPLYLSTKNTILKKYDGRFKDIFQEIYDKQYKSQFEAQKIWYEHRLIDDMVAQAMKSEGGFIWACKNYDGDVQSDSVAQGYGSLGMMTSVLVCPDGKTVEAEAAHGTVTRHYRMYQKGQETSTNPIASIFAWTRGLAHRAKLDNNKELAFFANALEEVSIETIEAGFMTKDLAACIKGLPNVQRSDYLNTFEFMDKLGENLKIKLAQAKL

In the test the target is Isocitrate dehydrogenase [NADP] cytoplasmic (Homo sapiens, UniProt O75874). Kind of test: Inhibition of wild type IDH1 (unknown origin) expressed in Escherichia coli BL21 using […] as substrate incubated for 5 mins prior to substrate addition measured every 30 secs.

Structures are written as SMILES.

Consider `Cc1cc(Cc2ccc(O)cc2)n(O)c(=O)c1`, for which the affinity, expressed as Ki, was 16.8 µM.

In general, Ki refers to a dissociation constant, usually derived from enzyme kinetics or from competition with a known ligand.
